Results on two molecules are retold here after ChEMBL document CHEMBL1148787, “Novel substituted (pyridin-3-yl)phenyloxazolidinones: antibacterial agents with reduced activity against monoamine oxidase A and increased solubility” (J Med Chem, 2007).

This data set is filed under the species Homo sapiens. Put plainly: Protein binding in human plasma. Particulars: read-out: PPB (converted).

The structures appear in SMILES notation.

Take `C[C@H](O)c1ccc(-c2ccc(N3C[C@H](Cn4ccnn4)OC3=O)cc2F)cn1`: the fraction unbound was 0.33.
Consider `C[C@@H](O)c1ccc(-c2ccc(N3C[C@H](Cn4ccnn4)OC3=O)cc2F)cn1`, for which the fraction unbound is 0.24.
